Ki data for one compound are collected here from patent US8959984B2, “Proteome-wide quantification of small molecule binding to cellular target proteins” (priority 2007, dated 2015).

Amino acid sequences for entries named in this document (tags omitted). A change or cut given only in a name is not applied to a line headed by its entry.
UniProt P35790, whole entry: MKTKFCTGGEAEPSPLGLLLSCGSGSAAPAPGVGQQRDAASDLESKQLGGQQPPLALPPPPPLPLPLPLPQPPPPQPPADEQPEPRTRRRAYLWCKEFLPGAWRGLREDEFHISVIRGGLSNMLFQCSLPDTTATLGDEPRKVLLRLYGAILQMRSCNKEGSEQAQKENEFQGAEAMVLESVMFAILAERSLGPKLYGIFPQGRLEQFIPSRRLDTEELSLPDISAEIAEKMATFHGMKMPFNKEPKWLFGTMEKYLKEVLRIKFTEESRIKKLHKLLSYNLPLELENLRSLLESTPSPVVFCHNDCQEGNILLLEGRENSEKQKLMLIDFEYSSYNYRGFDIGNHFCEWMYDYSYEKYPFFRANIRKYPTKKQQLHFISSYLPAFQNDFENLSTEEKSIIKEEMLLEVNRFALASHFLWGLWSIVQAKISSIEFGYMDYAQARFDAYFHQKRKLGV
UniProt Q05397, whole entry: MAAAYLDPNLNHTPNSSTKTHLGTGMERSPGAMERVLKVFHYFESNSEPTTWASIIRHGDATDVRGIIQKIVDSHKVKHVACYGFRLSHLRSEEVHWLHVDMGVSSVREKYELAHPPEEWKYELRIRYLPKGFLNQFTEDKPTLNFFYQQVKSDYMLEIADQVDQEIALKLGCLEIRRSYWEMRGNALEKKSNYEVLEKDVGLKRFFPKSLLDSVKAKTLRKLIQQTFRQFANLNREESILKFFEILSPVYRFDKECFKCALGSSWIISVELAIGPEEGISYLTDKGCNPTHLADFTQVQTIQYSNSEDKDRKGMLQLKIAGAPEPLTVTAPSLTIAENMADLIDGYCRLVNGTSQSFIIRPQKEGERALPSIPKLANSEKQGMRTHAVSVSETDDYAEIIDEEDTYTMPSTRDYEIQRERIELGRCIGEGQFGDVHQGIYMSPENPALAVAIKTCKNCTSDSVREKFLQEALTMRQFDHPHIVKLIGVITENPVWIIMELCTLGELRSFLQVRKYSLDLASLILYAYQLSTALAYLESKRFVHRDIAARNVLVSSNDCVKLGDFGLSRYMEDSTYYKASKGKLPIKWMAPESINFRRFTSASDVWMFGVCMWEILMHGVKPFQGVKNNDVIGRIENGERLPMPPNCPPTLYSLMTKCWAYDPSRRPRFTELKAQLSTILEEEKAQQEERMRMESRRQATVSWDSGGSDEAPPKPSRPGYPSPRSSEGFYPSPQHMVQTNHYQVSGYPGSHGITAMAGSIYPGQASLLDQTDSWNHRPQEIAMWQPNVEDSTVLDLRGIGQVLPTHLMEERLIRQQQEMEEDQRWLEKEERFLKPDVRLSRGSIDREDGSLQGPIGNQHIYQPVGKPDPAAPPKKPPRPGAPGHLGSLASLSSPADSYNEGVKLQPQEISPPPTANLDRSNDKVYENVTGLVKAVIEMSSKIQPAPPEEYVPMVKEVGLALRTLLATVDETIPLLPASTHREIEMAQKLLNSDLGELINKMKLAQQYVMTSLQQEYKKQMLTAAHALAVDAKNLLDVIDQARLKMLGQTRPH
UniProt Q9Y2U5: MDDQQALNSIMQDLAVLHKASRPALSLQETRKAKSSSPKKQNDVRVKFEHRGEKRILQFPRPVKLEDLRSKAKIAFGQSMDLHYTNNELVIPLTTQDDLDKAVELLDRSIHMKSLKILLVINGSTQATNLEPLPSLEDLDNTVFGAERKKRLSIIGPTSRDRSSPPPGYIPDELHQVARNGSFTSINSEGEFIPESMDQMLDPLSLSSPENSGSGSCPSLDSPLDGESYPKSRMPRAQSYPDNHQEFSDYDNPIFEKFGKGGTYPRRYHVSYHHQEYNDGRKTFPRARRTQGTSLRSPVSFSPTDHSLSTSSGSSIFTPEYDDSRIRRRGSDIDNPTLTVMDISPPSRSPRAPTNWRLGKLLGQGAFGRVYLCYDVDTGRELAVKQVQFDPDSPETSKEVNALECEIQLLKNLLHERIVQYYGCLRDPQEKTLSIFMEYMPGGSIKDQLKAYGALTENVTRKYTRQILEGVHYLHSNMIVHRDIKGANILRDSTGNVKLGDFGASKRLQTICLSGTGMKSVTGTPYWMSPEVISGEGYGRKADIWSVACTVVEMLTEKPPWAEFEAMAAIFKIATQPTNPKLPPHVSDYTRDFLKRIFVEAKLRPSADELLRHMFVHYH

Holding throughout (test): Ki determination for immobilized VI16742: two consecutive incubations, control beads, ligand concentration and incubation time controls (Tables 7, 8)
Type in all cases: binding

For assay [1], the target named is cellular target proteins in HeLa cell lysate (Homo sapiens, UniProt P35790). Conditions: Ki (VI16742), CHKA IPI00409761.
For assay [2], the target named is T1, cellular target proteins in HeLa cell lysate (Homo sapiens, UniProt P48426).
T1 sequence (P48426 1-406): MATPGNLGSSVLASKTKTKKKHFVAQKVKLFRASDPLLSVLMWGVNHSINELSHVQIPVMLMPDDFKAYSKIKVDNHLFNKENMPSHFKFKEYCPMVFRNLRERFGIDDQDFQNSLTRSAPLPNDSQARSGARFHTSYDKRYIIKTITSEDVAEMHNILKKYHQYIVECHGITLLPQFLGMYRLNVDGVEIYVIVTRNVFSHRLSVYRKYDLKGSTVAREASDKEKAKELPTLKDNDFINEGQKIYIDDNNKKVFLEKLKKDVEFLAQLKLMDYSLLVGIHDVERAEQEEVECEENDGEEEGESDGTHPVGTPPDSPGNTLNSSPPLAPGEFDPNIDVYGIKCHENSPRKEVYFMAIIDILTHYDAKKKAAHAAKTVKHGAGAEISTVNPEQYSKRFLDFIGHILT
The note with it: Ki (VI16742), PIP4K2A IPI00009688.

The target of assay [3] is cellular target proteins in HeLa cell lysate (Homo sapiens, UniProt Q05397). Conditions: Ki (VI16742), FAK IPI00413961.
Assay [4] addresses cellular target proteins in HeLa cell lysate (Homo sapiens, UniProt Q9Y2U5).

pKi: −log10 of the molar value.

`CC(C)n1c(=O)ccc2cnc(Nc3ccc(OCCN)cc3)nc21` [V16742]: the pKi is 4.54 in assay [1], 4.45 in assay [2], 4.68 in assay [3] and 4.38 in assay [4].

In general, pKi refers to −log10 of the Ki, conventionally taken in molar units.
